pEC50: −log10 of the molar value.
Columns and labels:
[1] = test system: cellular pERK in MIA-PaCa-2 (KRAS-G12C) cell-line; experiment: Cell based pERK assay (HTRF), MIA-PaCa-2; details: MIA-PaCa-2 (KRAS-G12C) cells, 2 hours incubation; read-out: MIAPaCa2 pERK EC50
Experimental: (§1) Compounds were tested in a 384-well assay format for their ability to inhibit cellular pERK in Kuramochi (WT KRAS), MIA-PaCa-2 (KRAS-G12C), ASPC-1 (KRAS G12D), and NCI-H441 (KRAS-G12V) cell-lines. Compounds were serially diluted (1:3) in DMSO. On day −1, 80 uL of cells were plated per well in the 384 well tissue-culture plates (Greiner: Cat #781080) to seed 5000 cells per wells of AsPC-1 or 7500 cells of MIA-PaCa-2, NCI-H441, and Kuramochi cell lines in RPMI (Corning: Cat #10-040-CM) with 10% fetal bovine serum (FBS) (HyClone: Cat #SH30071-03) and 1× penicillin-streptomycin-glutamate (PSG) (Corning: Cat #30-009-CI) for […] and Kuramochi cell lines and DMEM (Corning: Cat #15-018-CM) with […] and 1× PSG for MKA-PaCa-2 cell line. The plates were then incubated overnight at 37° C. and 5% CO2. On day 0, 400 nL of compound/well was added into the cell plates and mixed 5 times by pipetting using a Beckmann Biomek FX. The cell plates were then incubated for 2 hours at 37° C. and 5% CO2. HTRF Advanced Phospho-ERK1/2 ([…]) Detection Kits (PerkinElmer: Cat #64AERPEG) were used to prepare the lysis and detection solution according to manufacturer protocol. Following the 2 hour incubation, 70 μL of medium was aspirated from the plates and 10 uL of lysis and detection solution was added to the plates using a Biotek EL406 washer and dispenser. Plates were sealed and stored overnight at room temperature. HTRF ratio (665 nm/615 nm) was read by Envision multimode reader (PerkinElmer) the next day. The TR-FRET ratios were normalized to a positive (saturating concentration of known inhibitor) and negative (DMSO) control and plotted against the log of compound concentration. IC50 values were defined as the compound concentration that causes a […] in normalized signal and were calculated using a sigmoidal dose-response model to generate curve fits.

[2] = test system: cellular pERK in ASPC-1 (KRAS G12D) cell-line; experiment: Cell based pERK assay (HTRF), ASPC-1; details: ASPC-1 (KRAS G12D) cells, 2 hours incubation; read-out: AsPC1 pERK EC50
Experimental: as §1

[3] = test system: cellular pERK in Kuramochi (WT KRAS) cell-line; experiment: Cell based pERK assay (HTRF), Kuramochi; details: Kuramochi (WT KRAS) cells, 2 hours incubation
Experimental: as §1

[4] = test system: cellular pERK in NCI-H441 (KRAS-G12V) cell-line; experiment: Cell based pERK assay (HTRF), NCI-H441; details: NCI-H441 (KRAS-G12V) cells, 2 hours incubation
Experimental: as §1

| SMILES | pEC50 [1] | pEC50 [2] | pEC50 [3] | pEC50 [4] |
| --- | --- | --- | --- | --- |
| C#Cc1c(F)ccc2cc(O)cc(-c3cc4c5c(nc(OC[C@@]67CCCN6C[C@H](F)C7)nc5c3F)N3CCCOCC3CC4)c12 (mixture of isomers) [Example 3-1, 5-ethynyl-6-fluoro-4-(10-fluoro-8-(((2R,7aS)-2-fluorotetrahydro-1H-pyrrolizin-7a(5H)-yl)methoxy)-1,4,5,13,14,14a-hexahydro-3H-[1,4]oxazepino[4′,3′:1,7]azepino[2,3,4-de]quinazolin-11-yl)naphthalen-2-ol] | 8.68 | 8.03 | 8.34 | 8.54 |
| C#Cc1c(F)ccc2cc(O)cc(-c3cc4c5c(nc(OC[C@@]67CCCN6C[C@H](F)C7)nc5c3F)N3CCCOC[C@H]3CC4)c12 (single isomer, unassigned) [Example 4-1] | 8.57 | 7.86 | 8.19 | 8.37 |
| C#Cc1c(F)ccc2cc(O)cc(-c3cc4c5c(nc(OC[C@@]67CCCN6C[C@H](F)C7)nc5c3F)N3CCCOC[C@@H]3CC4)c12 (single isomer, unassigned) [Example 4-2] | 8.81 | 8.04 | 8.51 | 8.47 |
